Experimental findings from ChEMBL document CHEMBL1123702, “Functionalized DL-amino acid derivatives. Potent new agents for the treatment of epilepsy” (J Med Chem, 1987) are described below.

A short description of assay [1]: Protectivity index is the ratio of TD50 /MES ED50 from Phase-IV evaluation. The format is functional. A digest of the protocol:
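MES protection: hind-limb tonic extension abolished. sc Met: pentylenetetrazole 85 mg/kg as 0.5% solution sc, 30 min observation; protection: no threshold clonic seizure of 5 s or more. Toxicity: failing to stay 1 min on a 6 rpm rod. PI = TD50/MES ED50.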

Assay [2] in a line: Protectivity index is the ratio of TD50 /MES ED50 from Phase-II evaluation. It counts as functional. A digest of the protocol:
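MES protection: hind-limb tonic extension abolished; saline drop in eye before electrodes. sc Met: pentylenetetrazole 85 mg/kg as 0.5% solution sc in posterior midline, 30 min observation; protection: no clonic spasm episode of at least 5 s. Rotarod toxicity: falling off a 1-in. rod at 6 rpm within 1 min. PI = TD50/MES ED50.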

As for `CCC1(C)CC(=O)NC1=O` (configuration not stated) [ETHOSUXIMIDE], the Protective Index in assay [1] and in assay [2] was under 0.44 each time.
